Measurements taken from PubChem BioAssay AID602282 (Johns Hopkins Ion Channel Center, 2012).
The entries are a selection whose mix differs from that of the whole data set. Calls of active or inactive are those of the source.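 The calls were made as follows: active = inhibition above 3 SD of the buffer control wells (cut at about 41% in these data); inactive = the rest.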

Assay: reduced carbachol calcium response, RGS4-induced M3R cells, confirmation, RGS4 activator project, cell-based, HEK293 M3R/RGS4 inducible, calcium flux, duplicate (AID 602282);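 also: signal is the integrated peak-minus-minimum Fluo4 fluorescence over baseline ratio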
Conditions: carbachol calcium flux Fluo4, at 10 µM, active compounds read high

Row | SMILES | inhibition
1 | O=C(OC1CN2CCC1CC2)C1c2ccccc2C=Cc2ccccc21 (stereo not drawn) | active: 91%
2 | COc1cc(C(=O)NCC2(N3CCCCC3)CCCCC2)ccc1OC(F)F | active: 65.5%
3 | CCOc1ccc(C)cc1CN(CCCl)CCCl | active: 92.5%
